Values of other authors, collected in publication PMC5672155.

Biological target: Sec61α (Homo sapiens) (UniProt P61619)

- pKd: 6.94
Substance: Calmodulin (from UniProt P0DP23)

pKd: −log10 of the molar value.
